Conditions: rat
Text: The rat in vivo assays provided information in the form of acute toxicity, changes in Blood Urea Nitrogen (BUN) and serum creatinine levels over time, as well as histopathology changes in the kidneys of animals sacrificed at the end of the study. Elevation in BUN or serum creatinine is one of the markers routinely monitored in the clinic as an indication of aminoglycoside nephrotoxicity.

neomycin
rank order of relative in vivo nephrotoxicity: followed by amikacin, neomycin, and gentamicin
